# Ab-91 heavy chain CDR variants: yeast mating affinities

Data: MIT Lincoln Laboratory AlphaSeq set, Engelhart et al. 2022, doi:10.1038/s41597-022-01779-4, as distributed in FLAb.

Target: peptide PDVDLGDISGINAS, taken from heptad repeat 2 (HR2) of SARS-CoV-2 spike.

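Phage display of a naive human antibody library on the peptide gave the parent. Variants in AAYL51 differ from the parent at up to three CDR positions; double and triple changes were sampled at random. In AlphaSeq, yeast of one mating type display the scFv and yeast of the other type display the target. Pairs that bind mate more often; barcode pairs of the diploids are counted by sequencing. Read counts were normalised to the haploid input and turned into Kd by a linear fit to BCL2-family pairs of known affinity, for each replicate. The assay was run in three technical replicates.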

Each scFv is VL, a 15-residue (Gly4Ser)3 linker, VH, as in the parent Ab-91, and differs from it in the CDRs of the heavy chain only.
VL: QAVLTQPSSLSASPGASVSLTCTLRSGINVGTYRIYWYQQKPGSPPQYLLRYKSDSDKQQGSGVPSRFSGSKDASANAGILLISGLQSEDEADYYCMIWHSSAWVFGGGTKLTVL
VH: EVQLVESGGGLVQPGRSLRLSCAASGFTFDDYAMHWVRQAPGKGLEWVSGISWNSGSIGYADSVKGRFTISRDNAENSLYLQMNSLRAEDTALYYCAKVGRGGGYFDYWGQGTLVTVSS

Variants are written as CDR1, CDR2 and CDR3 of the heavy chain (limits as in the source). Parent: GFTFDDYAMH, GISWNSGSIGYADSVK, VGRGGGYFDY.
All variants listed here change F27 of the VH, counted from its first residue.
Numbers give log10(Kd / nM), so 0 is 1 nM and 3 is 1 µM. Smaller is tighter.
A pair that was not seen in that replicate is written "ND"; this usually means weak binding, but a binder can also be missed.

Variant GATFCDYAMH | GISWNSGSIGYADSVK | VGRSGGYFDY gave ND, ND, ND.
Variant GVTFDDYAMH | GISWNSGSIGYADSVK | VGRGGGYPDL gave 5.68, 4.30, ND.
Variant GCTFDDYAMP | GISWNSGSIGYADSVK | VGRGGGYKDY gave ND, ND, ND.
Variant GTTFDDPAMH | GISWNSGSIGYADSCK | VGRGGGYFDY gave 3.15, ND, ND.
Variant GETFDDYAMH | GISWNSGSIGYADSVK | VRRGGDYFDY gave 5.75, 4.72, 5.67.
Variant GATFDDYAMH | GISWNSGSIGPADSVK | VGRGGGYFDY gave ND, ND, ND.
Variant GWTFFDYAMH | GISWNSGSIGYADSVK | VGRGGGYFDL gave ND, 5.62, ND.
Variant GATFDDYAMH | GISWNSGSIGYADSVK | VGRGGGYMFY gave 4.54, 3.86, ND.
Variant VDTTDDYAMH | GISWNSGSIGYADSVK | VGRGGGYFDY gave ND, 3.73, 3.76.
Variant GGTFDDYAMA | GISWNSGSIGTADSVK | VGRGGGYFDY gave ND, 4.41, 3.85.
Variant GYTFDDYAMH | GISWNSGHILYADSVK | VGRGGGYFDY gave 5.40, 5.01, 5.65.
Variant GYTFDDYAMH | GISWNSGSLGYADSVK | VGRGGGSFDY gave 2.34, 2.35, 2.33.
Variant GCTFDDYADH | GISWMSGSIGYADSVK | VGRGGGYFDY gave 3.56, ND, ND.
Variant GCTFDDYAMH | GISWNSGSIGYADSVK | VPRGGGYFRY gave ND, ND, ND.
Variant GSTFDFYAMH | GISWNSGSIGYADSVK | VGRGGGYFDY gave 2.92, ND, ND.
Variant GNTFDDYAMH | GISWNSGSIGLADSVK | VGRGGGYFDY gave ND, 2.09, ND.
Variant GATFDDYAMH | GISWNSGSKGYADSVF | VGRGGGYFDY gave 5.27, 5.53, ND.
Variant GPTFDDYAMH | GISWNSISIGYADSVK | VGRGEGYFDY gave 5.26, 6.83, 4.79.
Variant GITFDDYAMH | GISWNSGHIGYADSVK | VGRGGGYIDY gave 4.57, 6.17, 3.37.
Variant GWTFDDYAMH | GISWNSGSIGYMDSVK | VGRVGGYFDY gave ND, ND, ND.
Variant GANFDDYAMH | GISWNSGSMGYADSVK | VGRGGGYFDY gave 3.49, 3.56, 4.20.
Variant GWTFDDYAMH | GISWNSGRIGYADSVK | WGRGGGYFDY gave ND, 4.62, ND.
Variant GHTFDDYAMH | GISWNSGSIGYADSFK | VGRGGGYLDY gave ND, ND, ND.
Variant GCTFDDYAMK | GISWNSGSIGYADSVK | VGYGGGYFDY gave 5.71, ND, 5.12.
Variant GWTFDDYAMH | GISWNSGSIGYADSVK | VGRGGGYFDY gave ND, 3.74, ND.
Variant GWTFDDDAMH | GISWNSGSIGYADKVK | VGRGGGYFDY gave 5.40, ND, ND.
Variant GWTFDDYAMH | GISWNSESIGYADSVC | VGRGGGYFDY gave 4.04, ND, ND.
Variant TDTFDDYAMC | GISWNSGSIGYADSVK | VGRGGGYFDY gave ND, ND, ND.
Variant GITFDDYAMH | GISWNSGSIGMAISVK | VGRGGGYFDY gave ND, ND, ND.
Variant GVTFDDYAMH | GISWNSGSIYYADSVK | VGRGGGYFDY gave ND, ND, ND.

A selection of 3 entries from above:

GATFDDYAMH | GISWNSGSIGYADSVK | VGRGGGYMFY: 4.54, 3.86, ND.
GWTFDDDAMH | GISWNSGSIGYADKVK | VGRGGGYFDY: 5.40, ND, ND.
GANFDDYAMH | GISWNSGSMGYADSVK | VGRGGGYFDY: 3.49, 3.56, 4.20.

For reference, the parent read 1.86 as the reference entry and 0.88 as a member of this library.
Background: pairings of library AAYL51 with three empty control strains gave a value in 21% of cases (median 4.54, 5th percentile 3.26). Values in that range, when seen in few replicates, are hard to tell from nonspecific mating.